The target in this experiment is Nitric oxide synthase 1 (Homo sapiens, UniProt P29475). Nature of the experiment: Inhibitory concentration against human neuronal nitric oxide synthase expressed in Sf-9 cells. The essentials:
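Recombinant human NOS isozyme produced in Sf-9 insect cells. Enzyme activity was followed as conversion of [¹⁴C]-L-Arg to [¹⁴C]-L-Cit, and IC50 was calculated from the concentration dependence of inhibition. Inhibitors were tested up to 1 mM.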

Chains of the proteins cited; added tags and fusions are not shown.
UniProt P29475, whole entry: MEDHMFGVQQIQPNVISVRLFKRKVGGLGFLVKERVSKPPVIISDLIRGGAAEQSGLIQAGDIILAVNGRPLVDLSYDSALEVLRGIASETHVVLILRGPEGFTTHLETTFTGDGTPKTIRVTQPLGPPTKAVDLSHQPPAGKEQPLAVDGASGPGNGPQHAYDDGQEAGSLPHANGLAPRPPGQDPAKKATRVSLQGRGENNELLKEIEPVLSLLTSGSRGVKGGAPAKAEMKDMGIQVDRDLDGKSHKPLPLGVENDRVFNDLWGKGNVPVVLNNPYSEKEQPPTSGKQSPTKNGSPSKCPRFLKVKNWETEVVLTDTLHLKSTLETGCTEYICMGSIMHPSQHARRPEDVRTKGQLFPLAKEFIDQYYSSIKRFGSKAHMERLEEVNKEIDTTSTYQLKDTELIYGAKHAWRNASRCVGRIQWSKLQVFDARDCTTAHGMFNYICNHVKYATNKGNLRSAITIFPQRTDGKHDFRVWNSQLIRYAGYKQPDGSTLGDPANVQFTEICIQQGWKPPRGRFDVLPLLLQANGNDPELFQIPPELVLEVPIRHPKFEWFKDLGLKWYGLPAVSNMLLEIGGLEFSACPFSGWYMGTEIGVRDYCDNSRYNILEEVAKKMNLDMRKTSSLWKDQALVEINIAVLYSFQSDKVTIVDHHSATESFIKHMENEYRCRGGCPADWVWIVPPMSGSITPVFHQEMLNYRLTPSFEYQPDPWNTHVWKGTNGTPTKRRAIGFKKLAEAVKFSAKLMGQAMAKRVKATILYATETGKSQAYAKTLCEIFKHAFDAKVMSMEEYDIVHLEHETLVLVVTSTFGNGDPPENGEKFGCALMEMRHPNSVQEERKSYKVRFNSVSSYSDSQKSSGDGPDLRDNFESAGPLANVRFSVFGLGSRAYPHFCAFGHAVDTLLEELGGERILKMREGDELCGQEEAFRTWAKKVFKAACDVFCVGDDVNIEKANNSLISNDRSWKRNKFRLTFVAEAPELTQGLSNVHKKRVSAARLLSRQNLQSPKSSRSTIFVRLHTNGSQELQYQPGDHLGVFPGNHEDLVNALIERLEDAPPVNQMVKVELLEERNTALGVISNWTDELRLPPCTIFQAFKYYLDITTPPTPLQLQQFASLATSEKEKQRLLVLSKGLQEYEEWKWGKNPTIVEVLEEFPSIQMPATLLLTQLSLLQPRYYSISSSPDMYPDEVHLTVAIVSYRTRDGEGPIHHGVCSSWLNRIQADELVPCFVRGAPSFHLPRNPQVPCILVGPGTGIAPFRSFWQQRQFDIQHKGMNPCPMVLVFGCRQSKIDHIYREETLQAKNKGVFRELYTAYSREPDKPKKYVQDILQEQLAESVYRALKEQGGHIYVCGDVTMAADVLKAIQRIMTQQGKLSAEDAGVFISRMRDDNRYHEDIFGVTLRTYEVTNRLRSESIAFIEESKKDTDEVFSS

For `CC(=N)NCCC[C@H](N)C(=O)O` [L-NIO], the IC50 (usually the concentration that gives 50% inhibition) amounted to 9 µM.

The values are drawn from ChEMBL document CHEMBL1139597, “Evaluation of 3-substituted arginine analogs as selective inhibitors of human nitric oxide synthase isozymes” (Bioorg Med Chem Lett, 2005).
